The source of these data is PubChem BioAssay AID624172 (National Center for Advancing Translational Sciences (NCATS), 2012).

Chains of the proteins cited; added tags and fusions are not shown. Lines headed by an entry give the natural chain unless they say otherwise; changes in a name come on top.
UniProt P43220, whole entry, stated change not applied: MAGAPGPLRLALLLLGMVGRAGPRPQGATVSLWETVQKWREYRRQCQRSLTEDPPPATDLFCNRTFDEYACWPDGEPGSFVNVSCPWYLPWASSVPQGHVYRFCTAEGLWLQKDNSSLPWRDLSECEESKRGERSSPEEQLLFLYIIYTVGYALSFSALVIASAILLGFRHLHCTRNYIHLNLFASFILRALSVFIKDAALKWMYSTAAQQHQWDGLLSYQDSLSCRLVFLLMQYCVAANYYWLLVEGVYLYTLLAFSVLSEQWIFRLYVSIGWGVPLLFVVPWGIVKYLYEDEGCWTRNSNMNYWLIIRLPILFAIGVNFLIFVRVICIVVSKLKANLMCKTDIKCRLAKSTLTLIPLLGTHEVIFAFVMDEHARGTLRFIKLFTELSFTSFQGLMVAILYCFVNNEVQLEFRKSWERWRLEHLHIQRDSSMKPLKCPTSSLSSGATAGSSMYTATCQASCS

The entries are a selection whose mix differs from that of the whole data set. Some tests of the compounds listed are not included; inactive here does not mean inactive elsewhere. Activity calls are given as the source filed them. The call rests on the fitted dose curve; in most records, active means well fitted activation curve with a large enough effect; inconclusive means small, poorly fitted or top-dose-only effect; inactive means no such curve, though single readings can be large or run the other way.

In the assay the target is Glucagon-like peptide 1 receptor (Homo sapiens) (UniProt P43220). In words: qHTS of GLP-1 Receptor Agonists. Further: % of control where 0% means no effect. The settings on record: HEK293 GLP-1R CRE-luciferase, luminescence, 4-6 h, cells express a hypersensitive GLP-1R form; at 45.6 µM (top of the series). An excerpt:
The overall goal of this project was to develop a novel assay for discovering small molecule ligands for class B1 G protein-coupled receptors (GPCRs). Very few agonists (or inverse agonists) with generally weak activity for this entire group of physiologically important receptors are known to date. To establish proof-of-principle that this critical bottleneck can be overcome with a suitable screening approach, our studies focused on the class B1 receptor for glucagon-like peptide-1 (GLP-1R), a potential therapeutic target for diabetes and neurodegenerative disease.
The assay was developed in a "mix and measure" format using a cell-based functional readout. Toward this goal, stably transfected HEK293 cell clones were established that co-express (i) a cAMP-responsive luciferase reporter gene, and (ii) GLP-1Rs that upon ligand interaction either stimulate (agonists) or inhibit (inverse agonists) luciferase activity. In different cell lines to be used for screening, expressed GLP-1Rs are specifically optimized for high sensitivity detection of either weak agonists (hypersensitive receptor) or inverse agonists (constitutively active receptor mutant). In addition, control cell lines were developed that express either the cAMP-responsive reporter gene without recombinant GLP-1Rs (enabling initial exclusion of GLP-1R independent effects of candidate probes), or the reporter gene together with wild type GLP-1Rs (for confirmation of probe activity at this receptor), or the reporter gene in combination with the constitutively active orphan receptor GPR119 (enabling initial exclusion of GLP-1R independent inhibitory effects of candidate inverse agonists).
To that end, this assay was optimized for 1536-well format and screened against the MLSMR.
NIH Molecular Libraries Probe Production Network [MLPCN]
NIH Chemical Genomics Center [NCGC]
PI Name: Martin Beinborn, Tufts Medical Center
In a white solid 1536-well plate, 6 uL of cells are dispensed in DMEM without phenol red, 10% Nu serum, and 1% pen-strep medium. The plates are then incubated for 12 hours at 37 deg C at 5% CO2 before 23 nL of compounds are added. After a 4-6 hr incubation at37 deg C and 5% CO2, 3 uL of detection reagent are added and after a 12 min incubation at RT, a luminescent read is obtained on the ViewLux.
In general terms: qHTS replaces the single test concentration by a dilution series.
As for `CCN1CCCC(OC(=O)C2(O)c3ccccc3C=Cc3ccccc32)C1` (stereo not drawn), the activation is inactive: 0.541%. Take `Cc1cc(C(=O)NCC2(N3CCCCC3)CCCCC2)ccc1[N+](=O)[O-]`: the activation is inactive: 7.36%. The value for `O=C(NCC1(N2CCCCC2)CCCCC1)c1cccc(Br)c1` was inactive: 7.61%; that for `COc1ccc(C(=O)NCC2(N(C)C)CCCCC2)cc1` was inactive: 1.15%. On to `CCOc1cccc(C(=O)NCC2(N(C)C)CCCCC2)c1`, for which the activation was inactive: 11%. For `C=CCN1CCN(CCOC(=O)C(O)(c2ccccc2)c2ccccc2)CC1` the value was inactive: -0.853%; for `O=C(NCC1(N2CCCCC2)CCCCC1)c1cc(F)c(F)cc1Cl`, inactive: -0.188%; for `CN1CCCC(OC(=O)C(O)(c2ccccc2)c2ccccc2)C1` (stereo not drawn), inactive: 16.7%. The value for `CCCCOc1ccccc1C(=O)NCC1(N(C)C)CCCCC1` was inactive: -4.56%; that for `Cc1ccccc1C(=O)NCC1(N2CCCCC2)CCCCC1` was inactive: 3.88%; that for `CN(C)C1(CNC(=O)c2ccccc2[N+](=O)[O-])CCCCC1` was inactive: -5.72%. `CN(C)c1ccc(C(=O)NCC2(N(C)C)CCCCC2)cc1`: the activation was inactive: 6.67%. For `CN(C)C1CCCC1OC(=O)C(O)(c1ccccc1)c1ccccc1` (stereo not drawn) the value was inactive: -2.94%; for `CN(C)C1(CNC(=O)c2ccccc2F)CCCCC1`, inactive: -4.69%; for `Cc1ccc(C(=O)NCC2(N3CCCCC3)CCCCC2)cc1`, inactive: 1.25%. `CC(C)N1C(=O)CC2(CCN(CCOC(=O)C(O)(c3ccccc3)c3ccccc3)CC2)C1=O`: the activation was inactive: -0.931%. The value for `CN(C)C1(CNC(=O)c2cccc(Cl)c2)CCCCC1` was inactive: -0.883%; that for `CCN(CC)CC(C)C(C)OC(=O)C(O)(c1ccccc1)c1ccccc1` (stereo not drawn) was inactive: 6.39%. The value for `COc1cc(SC)ccc1C(=O)NCC1(N(C)C)CCCCC1` was inactive: 13.3%; that for `CN1[C@@H]2CC[C@H]1CC(OC(=O)C(O)(c1ccccc1)c1ccccc1)C2` (stereo partly drawn) was inactive: -6.06%. Consider `O=C(NCC1(N2CCCCC2)CCCCC1)c1cc([N+](=O)[O-])ccc1Cl`, for which the activation is inactive: 1.36%. The value for `CN(C)c1cccc(C(=O)NCC2(N(C)C)CCCCC2)c1` was inactive: -22.1%.

On to `CC(C)Oc1ccc(C(=O)NCC2(N(C)C)CCCCC2)cc1`, for which the activation is inactive: 7.53%. For `O=C(OCCN1CCCC1)C(O)(c1ccccc1)c1ccccc1` the value was inactive: -3.72%; for `COc1ccc(Br)c(C(=O)NCC2(N3CCCCC3)CCCCC2)c1`, inactive: -2.18%.

Turning to `C=C(C)C#CC(O)(C(=O)OC1CCN(C)CC1)c1ccccc1` (stereo not drawn), the activation is inactive: -1.06%. As to `O=C(OC1CN2CCC1CC2)C(CO)(c1ccccc1)c1ccccc1` (stereo not drawn), the activation is inactive: -0.34%. Turning to `COc1cccc(C(=O)NCC2(N3CCOCC3)CCCCC2)c1`, the activation was inactive: -7.35%. For `O=C(NCC1(N2CCCCC2)CCCCC1)c1cccc(Cl)c1` the value was inactive: 1.77%; for `COc1cccc(C(=O)NCC2(N3CCCCC3)CCCCC2)c1`, inactive: 4.59%. For `COc1ccc(Cl)cc1C(=O)NCC1(N(C)C)CCCCC1` the value was inactive: 2.6%; for `COc1cc(C(=O)NCC2(N(C)C)CCCCC2)c([N+](=O)[O-])cc1OC`, inactive: 0.929%; for `CN(C)C1(CNC(=O)c2ccc(Br)cc2)CCCCC1`, inactive: 10.8%.
